This series has as its system healthy adult volunteers. The experiment in a line: Previous studies of the dose effects of cannabis (10 mg and 25 mg THC) given by oral ingestion, smoking or vaporization. The note with it: 10-mg THC dose, vaporized cannabis; FIG. 1.

`CCCCCc1cc(O)c2c(c1)OC(C)(C)[C@@H]1CCC(C)=C[C@@H]21` [THC, (−)-trans-Δ^9-tetrahydrocannabinol]: the anxiety entry is on record as “not associated with an increase in anxiety”.

The values are drawn from patent publication US20240342197A1, “LIMONENE EFFECTS ON TETRAHYDROCANNABINOL (THC)-INDUCED ANXIETY” (The Johns Hopkins University, priority 2021, published 2024).
